From PubChem BioAssay
Only a part is listed here, and it is no random draw. The source made the active and inactive calls.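 Rule for the calls, unless noted: active = active in primary screen and both duplicates, each dropping signal beyond three positive-control SD with fluorescence still positive; inactive = the rest.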

The chains behind the UniProt entries cited, without tags or fusion partners. Where a name states a change or a piece, a line headed by the entry shows the natural chain unless it says otherwise.
UniProt Q61143: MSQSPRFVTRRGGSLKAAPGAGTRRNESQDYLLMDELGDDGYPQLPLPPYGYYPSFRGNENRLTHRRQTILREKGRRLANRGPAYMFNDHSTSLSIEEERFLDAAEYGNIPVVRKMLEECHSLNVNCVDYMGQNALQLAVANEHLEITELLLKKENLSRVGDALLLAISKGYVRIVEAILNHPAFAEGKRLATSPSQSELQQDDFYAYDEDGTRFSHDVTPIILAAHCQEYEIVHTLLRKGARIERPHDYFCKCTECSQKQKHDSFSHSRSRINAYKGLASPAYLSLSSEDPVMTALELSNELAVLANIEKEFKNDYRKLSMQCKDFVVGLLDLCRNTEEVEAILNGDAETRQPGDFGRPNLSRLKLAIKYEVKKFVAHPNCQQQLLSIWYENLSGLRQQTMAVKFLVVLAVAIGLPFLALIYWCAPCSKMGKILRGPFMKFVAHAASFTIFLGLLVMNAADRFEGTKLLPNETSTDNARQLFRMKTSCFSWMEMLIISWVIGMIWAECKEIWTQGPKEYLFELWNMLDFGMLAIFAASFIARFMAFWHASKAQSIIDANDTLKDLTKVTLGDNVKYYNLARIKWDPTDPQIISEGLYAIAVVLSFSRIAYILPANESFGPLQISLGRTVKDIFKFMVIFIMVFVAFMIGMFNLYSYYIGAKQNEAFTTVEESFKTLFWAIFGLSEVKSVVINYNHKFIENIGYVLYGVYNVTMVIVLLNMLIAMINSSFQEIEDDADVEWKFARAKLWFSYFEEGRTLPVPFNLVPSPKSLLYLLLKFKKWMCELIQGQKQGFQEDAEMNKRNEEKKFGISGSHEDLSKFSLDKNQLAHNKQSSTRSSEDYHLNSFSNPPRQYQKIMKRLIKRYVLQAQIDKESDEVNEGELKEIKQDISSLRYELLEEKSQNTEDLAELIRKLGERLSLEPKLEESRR

Key:
[1] = target: Short transient receptor potential channel 6 (Mus musculus) (UniProt Q61143); test: inhibition of mouse TRPC6 channel, confirmation, selectivity assay for TRPC4 inhibitor project, cell-based, HEK293, membrane potential dye, duplicate (AID 434948); conditions: HEK293 TRPC6, membrane potential dye fluorescence; at 10 µM; active compounds read high; stimulated with maximal-effect acetylcholine
How it was run: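 Times: 45 min RT dye load, 110 s compound, 110 s agonist read | Assay system: HEK293 cells expressing mouse TRPC6 channel | Detection: Kinetic membrane potential dye fluorescence | Replicates: Duplicate testing | Read-out: Control-normalized integrated fluorescence ratio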

[2] = target: Short transient receptor potential channel 6 (Mus musculus) (UniProt Q61143); test: TRPC6 potentiation by TRPC4 potentiator hits, confirmation, selectivity assay for TRPC4 potentiator project, HEK293 cells, membrane potential dye, duplicate (AID 434952;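 active = compound raising the membrane signal above positive-control mean plus 3 SD in both repeats, and a primary screen hit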); conditions: HEK293 TRPC6, membrane potential dye fluorescence; at 10 µM; active compounds read high; maximal acetylcholine added after compound
[3] = modulation of acetylcholine-evoked membrane potential, parental HEK293, confirmation, counter-screen for TRPC6 modulator project, cell-based, second counter-screen, membrane potential dye (AID 488926;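 active = membrane potential signal drops by more than 5 SD from the mean control signal, in both duplicate plates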;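 note: plate controls were acetylcholine ECmax control wells for no effect and buffer only wells for full effect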); conditions: parental HEK293, membrane potential dye fluorescence; at 10 µM; active compounds read high; after compound, maximal acetylcholine stimulation

Structure (SMILES)	inhibition [1]	potentiation, percent of control [2]	inhibition [3]
CN(C)C1(CNC(=O)c2ccc(Cl)c(S(N)(=O)=O)c2)CCCCC1	inactive: 0%	inactive: 0%	–
O=C(OC1CN2CCC1CC2)C12CC3CC(CC(C3)C1)C2 (stereo not drawn)	–	–	active: 100%
